Usually IC50 stands for the concentration that gives 50% inhibition.

Amino acid sequences for entries named in this document (tags omitted). A change or cut given only in a name is not applied to a line headed by its entry.
UniProt O15379: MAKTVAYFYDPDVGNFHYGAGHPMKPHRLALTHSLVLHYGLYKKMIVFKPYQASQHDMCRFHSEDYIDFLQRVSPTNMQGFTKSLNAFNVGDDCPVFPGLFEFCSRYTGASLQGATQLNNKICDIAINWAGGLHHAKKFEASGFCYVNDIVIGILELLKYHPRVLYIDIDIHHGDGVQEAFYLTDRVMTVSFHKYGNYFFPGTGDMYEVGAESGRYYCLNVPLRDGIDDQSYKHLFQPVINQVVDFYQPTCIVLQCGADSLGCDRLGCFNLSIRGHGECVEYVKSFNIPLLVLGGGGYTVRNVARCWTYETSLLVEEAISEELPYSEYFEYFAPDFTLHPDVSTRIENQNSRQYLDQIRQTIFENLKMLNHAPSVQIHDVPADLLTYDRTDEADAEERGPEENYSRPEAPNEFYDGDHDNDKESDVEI

SMILES strings stand for the structures.

The target of this assay is Histone deacetylase 3 (Homo sapiens, UniProt O15379).

In the case of `CCCC(CCC)C(=O)O` [VALPROIC ACID], the midpoint of inhibition, the IC50, lay at 135 µM.

The record behind these values is ChEMBL document CHEMBL4823270, “A first-in-class anticancer dual HDAC2/FAK inhibitors bearing hydroxamates/benzamides capped by pyridinyl-1,2,4-triazoles” (Eur J Med Chem, 2021).
